In assay [1] the target is misTTR antibody. Briefly: competition ELISA: suspended TTR fibrils against plate-bound GdnHCl-unfolded TTR for misTTR antibody. Background: An ELISA detects its analyte on a solid surface through an enzyme-linked reagent.
Assay [2] addresses misTTR antibody. Briefly: competition ELISA: folded TTR in solution against plate-bound GdnHCl-unfolded TTR.
The target in assay [3] is misTTR antibody. Briefly: competition ELISA: monomeric TTR in solution against plate-bound GdnHCl-unfolded TTR for 1 ug/mL misTTR antibody.

Turning to “TTR amyloid fibrils (from UniProt P02766 21-147)”, the EC50 – broadly, the concentration at which the effect is half-maximal – in assay [1] came out at 800 nM. In assay [2], “folded tetrameric TTR (from UniProt P02766 21-147)” registered a highest concentration without binding greater than 4 µM. On to “monomeric TTR (from UniProt P02766 21-147)”, for which the EC50 in assay [3] was 63 nM.

The record behind these values is patent US20170089929A1.
